{
  "source": "paper PMC10349193",
  "about": "(CPT: Pharmacometrics & Systems Pharmacology, 2023)",
  "origin": "cited, not measured here",
  "key": {"Caco-2": {"test_system": "Caco-2", "details": "pH 6.5: pH 7.4, Passive; rifampicin file with reference compound; ref SimCYP library version 19; cited from earlier work"}, "[1]": {"details": "single adjusting compartment; ref SimCYP library version 19; cited from earlier work"}},
  "data": [
    {"smiles": "CO[C@H]1/C=C/O[C@@]2(C)Oc3c(C)c(O)c4c(O)c(c(/C=N/N5CCN(C)CC5)c(O)c4c3C2=O)NC(=O)/C(C)=C\\C=C\\[C@H](C)[C@H](O)[C@@H](C)[C@@H](O)[C@@H](C)[C@H](OC(C)=O)[C@@H]1C", "note": "[Rifampicin]", "values": [
      {"measurement": "Caco-2 Papp", "setting": "Caco-2", "result": "15 10^-6 cm/s"},
      {"measurement": "Volume [Vsac]", "setting": "[1]", "result": "1e-05", "unit": "L/kg"}
    ]}
  ]
}
